Results: patent publication US20230175015A1, “IMMUNOSUPPRESSIVE AGENTS AND VIRAL DELIVERY RE-DOSING METHODS FOR GENE THERAPY” (MYOGENE BIO LLC, priority 2020, published 2023)

Tested on: hDMD de145 mdx mice
Experiment: AAV9 redosing with immunosuppressive regimens, GFP/mCherry expression (Example 2)
Assay type: in vivo
Details: triceps
Protocol: Experimental overview. Different immunosuppressive drug regimens were assessed for their ability to support multiple injections of AAV9 to be efficacious. The experimental paradigm is outlined in FIG. 1. Mice were given an immunosuppression protocol (IS) commencing at Day-7 (1st dose—AAV injection) and re-dosed (2nd dose—AAV9 injection) approximately 4 weeks after the first dose. The 1st dose consisted of AAV9-CMV-GFP at a concentration of 1.16×10^14 vector genomes (vgs)/kg (˜3×10^12 vgs/mouse). In some cases, the 1st dose also included AAV9-Ck8-Cas9. The 2nd dose consisted of AAV9-target (containing mCherry and 45-55 gRNAs21) at a concentration of 1.16×10^14 vgs/kg and AAV9-Ck8-Cas9 at a concentration of 1.16×10^14 vgs/kg each vector (FIGS. 2A and 2B). Immunomodulation protocols were tested to determine the efficacy of repeat dosing by GFP and mCherry expression.
Immunosuppressive drugs. […]
Redosing was assessed by looking for mCherry expression, which was only present in the second injection. […]

## CTLA4Ig: hCTLA4Ig (Abatacept)
Imaging of heart, tibialis anterior sections
  mCherry expression (redosing) when the named drug is left out of the four-drug regimen: mCherry expression is observed
Lysates of heart, liver
  mCherry expression (redosing) by Western blotting when the named drug is removed from the four-drug regimen: Redosing of mCherry expression was shown
